By UniProt entry, the sequences of proteins in these tests, tags left out. Where a name states a change or a piece, a line headed by the entry shows the natural chain unless it says otherwise. Residues count along the entry.
UniProt Q9Y5N1: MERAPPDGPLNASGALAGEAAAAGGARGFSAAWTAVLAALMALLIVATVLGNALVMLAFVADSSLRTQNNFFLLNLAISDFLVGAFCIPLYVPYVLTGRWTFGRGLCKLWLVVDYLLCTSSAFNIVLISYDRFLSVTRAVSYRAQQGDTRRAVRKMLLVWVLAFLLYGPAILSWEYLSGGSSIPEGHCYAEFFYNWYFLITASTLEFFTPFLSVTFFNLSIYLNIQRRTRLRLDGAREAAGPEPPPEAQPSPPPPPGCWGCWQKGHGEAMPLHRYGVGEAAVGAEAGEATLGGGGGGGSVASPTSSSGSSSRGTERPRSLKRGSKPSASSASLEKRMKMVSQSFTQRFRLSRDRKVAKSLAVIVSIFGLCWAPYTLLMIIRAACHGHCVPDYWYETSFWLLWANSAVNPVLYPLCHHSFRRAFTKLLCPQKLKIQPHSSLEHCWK
UniProt Q9QYN8, 1-397 isoform Q9QYN8-3: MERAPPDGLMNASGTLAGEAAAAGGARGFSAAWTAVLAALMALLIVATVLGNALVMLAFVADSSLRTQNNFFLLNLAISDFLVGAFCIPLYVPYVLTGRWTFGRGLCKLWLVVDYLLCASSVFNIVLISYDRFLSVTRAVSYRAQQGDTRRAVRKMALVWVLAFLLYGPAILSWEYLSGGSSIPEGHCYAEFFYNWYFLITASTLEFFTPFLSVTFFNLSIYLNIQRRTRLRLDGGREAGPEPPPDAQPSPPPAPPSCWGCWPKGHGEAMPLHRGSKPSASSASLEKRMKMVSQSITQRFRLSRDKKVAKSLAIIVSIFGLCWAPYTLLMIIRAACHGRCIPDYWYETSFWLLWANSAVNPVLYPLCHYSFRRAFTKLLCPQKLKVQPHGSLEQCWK

According to patent US8940731B2, “Substituted pyridyl amide compounds as modulators of the histamine H3 receptor” (Janssen Pharmaceutica NV, priority 2006, dated 2015):

What was measured:
[1] = molecular target: T1, human H3 receptor (Homo sapiens, UniProt Q9Y5N1); assay: Cyclic AMP Accumulation (human H3 receptor); type: cell-based
T1 construct: expressed in transfected cells; host or cells: SK-N-MC sublines with a reporter construct
Description: (§1) Sublines of SK-N-MC cells were created that expressed a reporter construct and either the human or rat H3 receptor.

[2] = molecular target: T2, Rat H3 (Rattus norvegicus, UniProt Q9QYN8); assay: H3 Receptor Binding (Rat); conditions: rat brain membranes without cerebellum, 0.8 nM N-[3H]-α-methylhistamine, 60 min at 25° C.; average of the results obtained
Description: H3 Receptor Binding (Rat)
A rat brain without cerebellum (Zivic Laboratories Inc., Pittsburgh, Pa.) was homogenized in 50 mM Tris-HCl/5 mM EDTA and centrifuged at 1,000 rpm for 5 min. The supernatant was removed and recentrifuged at 15,000 rpm for 30 min. Pellets were rehomogenized in 50 mM Tris/5 mM EDTA (pH 7.4). Membranes were incubated with 0.8 nM N-[^3H]-α-methylhistamine plus/minus test compounds for 60 min at 25° C. and harvested by rapid filtration over GF/C glass fiber filters (pretreated with 0.3% polyethylenimine) followed by four washes with buffer. Nonspecific binding was defined in the presence of 100 μM histamine. […] Data for compounds tested in this assay are presented in Table 2 as an average of the results obtained.

[3] = molecular target: T3, cloned human H3 receptors (Homo sapiens, UniProt Q9Y5N1); assay: H3 Receptor Binding (Human); conditions: cloned human H3 receptors stably expressed in SK-N-MC cells; average of the results obtained
T3 construct: expressed in transfected cells
Description: H3 Receptor Binding (Human)
Binding of compounds to the cloned human H3 receptors, stably expressed in SK-N-MC cells, was performed as described by Barbier, A. J. et al. (Br. J. Pharmacol. 2004, 143(5), 649-661). Data for compounds tested in this assay are presented in Table 1 as an average of the results obtained.

[4] = molecular target: T2, Rat H3; assay: cell-based
Description: as §1

Q: How did the Kb [1] turn out when `O=C(c1ccc(Oc2ccc(F)cc2)nc1)N1CCCN(C2CCC2)CC1` [Example 19, (4-Cyclobutyl-[1,4]diazepan-1-yl)-[6-(4-fluoro-phenoxy)-pyridin-3-yl]-methanone] was run?
A: 0.417 nM

Q: And the Ki [2]?
A: 66 nM

Q: What about the Ki [3] of the same compound?
A: 4 nM

Q: What about the Kb [4] of the same compound?
A: 3.31 nM
